Assay: physchem

Ic1ccccc1 [IODOBENZENE]
logP: 3.25

Source: ChEMBL document CHEMBL1123071 (J Med Chem, 1985)
